Consider 1 molecule from PMC7408095 (Pharmaceutics, 2020).

Entries after “also recorded” stand apart in the source; their conditions may differ.

A short description of the data set: Plasma pharmacokinetics of metformin in rats (HPLC-UV). Conditions: IISOR+MET group vs VMET group.

`CN(C)C(=N)N=C(N)N` [metformin]: the “influence of sorafenib on the exposure to metformin” value was “did not statistically significantly influence; also recorded: did not significantly affect”.
